Source: PubChem (National Center for Advancing Translational Sciences (NCATS))
PINK1 modulator: changes PINK1 expression; PINK1 immunofluorescence, high-content cytometry, 24 h; Potency, µM (series often up to 76.6 µM), without a hit: top-dose activation (PINK1 increase), usual class: activators; 0.2% of 410,000 active; active = well fitted activation curve with a large enough effect; inconclusive = small, poorly fitted or top-dose-only effect; cell line not stated here; also: potency is read from the fitted curve at half-maximal effect; % of control where 0% means no effect; nearly all actives have a fitted effect of over 65% in size
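Decision-based qHTS: stable cells, 24 h exposure to five compound concentrations, CCCP as control. Fixed cells stained for PINK1 plus nuclear, mitochondrial and cell markers, cytometer read.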
miR-21 reporter: miR-21 reporter, rising signal | HeLa miR-21 FLuc reporter, luciferase, 48 h | Potency, µM (doses to about 38.3 µM), inactives show at the top dose reporter change, positive = more light | 340,000 tested, under 10 active | AID 2288; active = well fitted rising curve with a large enough effect; inconclusive = small, poorly fitted or top-dose-only effect; inactive = no such curve, though single readings can be large or run the other way;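 note: % of control where 0% means no effect; miR-21 action dims this reporter so a rising signal means less miR-21 action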
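Luminescence from a firefly luciferase reporter carrying a miR-21 binding site downstream, stably expressed under a CMV promoter in HeLa cells that make miR-21 endogenously, reports miRNA modulation after 48 h compound exposure up to approximately 40uM final.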
TrxR1 inh-1: blocks rat thioredoxin reductase 1; O89049; recombinant rTrxR1, NADPH fluorescence consumption, selenite substrate; Potency, µM (titrated, usually from 114 µM), for inactives: top-dose activity change, negative = inhibition, hits mostly inhibitors; 1% of 390,000 active; AID 588453; also: potency is read from the fitted curve at half-maximal effect; % is scaled to controls: 0 for no effect and ±100 for the full control effect; nearly all actives have a fitted effect of over 65% in size
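Rat TrxR1 (90 nM in the dispensed reagent) was pre-reduced with 400 uM NADPH for 5 min at room temperature, then incubated with compound for 15 min. After 400 uM selenite was added, NADPH fluorescence (Ex 340/Em 450 nm) was followed for 8 min.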
TrxR1 substrate: substrates of rat thioredoxin reductase 1 | AID 588456 | O89049 | purified TrxR1 substrate turnover, NADPH consumption readout | 0.01% of 390,000 active | Potency, µM (highest dose often 114 µM), inactives show top-dose activity change, negative = substrate turnover; also: potency is read from the fitted curve at half-maximal effect; % is scaled to controls: 0 for no effect and ±100 for the full control effect; nearly all actives have a fitted effect of over 50% in size
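Rat TrxR1, dispensed at 90 nM, was prereduced with 400 uM NADPH (final) for 5 min at ~22 deg C, then incubated with compound 15 min before 400 uM selenite. A first-read NADPH fluorescence drop versus no-compound background flagged substrates.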
GALK inh: blocks human galactokinase activity. P51570. Purified GALK, Kinase-Glo residual ATP luminescence. Potency, µM (top dose mostly 57.5 µM), inactives show at the top dose activity change, negative = inhibition, most hits filed as inhibitors. 0.007% of 270,000 active. AID 1868; also: potency is read from the fitted curve at half-maximal effect; % is scaled to controls: 0 for no effect and ±100 for the full control effect
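Luminescence from leftover ATP (Ultra-Glo luciferase/luciferin) served as read-out after a 1 h room-temperature reaction of 5 nM GALK with 35 uM ATP and 100 uM galactose.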
GR counterassay: inhibits human glutathione reductase in TrxR1 counterassay; shares compounds with TrxR1 inh-1; purified GR, DTNB reduction absorbance 405 nm kinetic; activity change, negative = inhibition, % at 57.1 µM; 55 tested, under 10 active; AID 652020
TrxR1 inh-2: rat TrxR1 inhibition, primary screen retest | shares compounds with TrxR1 inh-1 | recombinant TrxR1, NADPH fluorescence consumption, selenite substrate | Potency, µM, usual class: inhibitors | 50% of 55 active
TrxR1 insulin: TrxR1 inhibition in insulin mechanism assay; shares compounds with TrxR1 inh-1; TrxR1 Trx-coupled insulin reduction, NADPH absorbance 340 nm; Potency, µM; 20% of 55 active;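 active = compounds with a measured potency under 100 micromolar; inconclusive = filed, but no rule given; inactive = potency at or above that, or unmeasurable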
TrxR1 inh-3: rat thioredoxin reductase 1 inhibition, DTNB assay; shares compounds with TrxR1 inh-1; Potency, µM; purified TrxR1, DTNB reduction, A412; 90% of 55 active;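 active = a half-inhibiting concentration could be measured and was below 100 µM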
Starred values were filed as active, the others as inactive; i = inactive; ? = inconclusive; nt = not tested or not shown; [ ] = remark or other dose. The list is not random: actives were taken first. Their share in the collection is about 1.1%. Unless noted, calls follow the shape of the dose curve; as a rule, active = well fitted curve in the direction sought with a large enough effect; inconclusive = small, poorly fitted or top-dose-only effect, or another doubt; inactive = no such curve, though single readings can be large; an effect the other way counts as inactive or inconclusive.

[1] CCOc1cccc(C(=O)NC(=S)Nc2ccc(N3CCN(CC)CC3)cc2)c1
[2] CCCOc1cccc(C(=O)NC(=S)Nc2ccc(N3CCN(C)CC3)cc2)c1
[3] CCOc1cccc(C(=O)NC(=S)Nc2ccccc2)c1
[4] Cc1ccc(-c2nc(C)sc2CC(=O)NCc2ccco2)cc1
[5] CCc1nn2c(=O)cc(COC(=O)C3CCCCC3)nc2s1
[6] Cc1cc2nc(Sc3c([N+](=O)[O-])nc(C)n3Cc3ccccc3)[nH]c2cc1C

screen / no.	1	2	3	4	5	6
PINK1 modulator	-1%	0%	0%	-1%	0%	-2%
miR-21 reporter	-14%	-2%	-60%	-6%	5%	20%
TrxR1 inh-1	-51%	79µM*	32µM*	50µM*	-8%[57.1 µM]	7.1µM*
TrxR1 substrate	-10%[57.1 µM]	-5%	-15%	10%	-10%[57.1 µM]	-8%
GALK inh	-1%	1%	2%	7%	nt	-3%
GR counterassay	nt	-11	-3	-8	nt	-11
TrxR1 inh-2	nt	5.3*	6.7*	5.3*	nt	3*
TrxR1 insulin	nt	i	i	i	nt	32µM*
TrxR1 inh-3	nt	i	74µM*	10µM*	nt	0.013µM*

Reprinted at random: 2 records from the list
[4] Cc1ccc(-c2nc(C)sc2CC(=O)NCc2ccco2)cc1
[6] Cc1cc2nc(Sc3c([N+](=O)[O-])nc(C)n3Cc3ccccc3)[nH]c2cc1C

screen / no.	4	6
PINK1 modulator	-1%	-2%
miR-21 reporter	-6%	20%
TrxR1 inh-1	50µM*	7.1µM*
TrxR1 substrate	10%	-8%
GALK inh	7%	-3%
GR counterassay	-8	-11
TrxR1 inh-2	5.3*	3*
TrxR1 insulin	i	32µM*
TrxR1 inh-3	10µM*	0.013µM*

Remaining list, next part.
[7] Cc1nc([N+](=O)[O-])c(N2CCN(Cc3ccccc3)CC2)n1Cc1ccccc1
[8] C(=C\c1ccnc2ccccc12)/c1ccc(-[n+]2cc[n+](-c3ccc(/C=C/c4ccnc5ccccc45)cc3)cc2)cc1
[9] COCCN1C(=O)c2oc3ccccc3c(=O)c2C1c1ccc(C(=O)OC)cc1 (stereo not drawn)
[10] COC(=O)c1ccc(C2c3c(oc4ccccc4c3=O)C(=O)N2CCCN2CCOCC2)cc1 (stereo not drawn)

screen / no.	7	8	9	10
PINK1 modulator	0%	1%	3%	3%
miR-21 reporter	1%	nt	4%	-14%
TrxR1 inh-1	-1%	-16%	17%[57.1 µM]	10µM*
TrxR1 substrate	-3%	-15%	8%[57.1 µM]	7%[57.1 µM]
GALK inh	1%	nt	-3%	2%
GR counterassay	nt	nt	nt	-8
TrxR1 inh-2	nt	nt	nt	?
TrxR1 insulin	nt	nt	nt	i
TrxR1 inh-3	nt	nt	nt	1.2µM*
